Binding of CDR-mutated scFvs to a peptide of the spike HR2 region

The target is the same throughout: PDVDLGDISGINAS, from the HR2 region of SARS-CoV-2 spike.

Parent: Ab-14, a human scFv built as VH, a (GGGGS)3 linker, VL. Only the CDRs of the heavy chain vary.
VH: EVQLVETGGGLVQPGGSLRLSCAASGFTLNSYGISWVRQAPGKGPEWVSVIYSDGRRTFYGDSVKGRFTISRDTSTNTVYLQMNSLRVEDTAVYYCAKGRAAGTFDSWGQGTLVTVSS
VL: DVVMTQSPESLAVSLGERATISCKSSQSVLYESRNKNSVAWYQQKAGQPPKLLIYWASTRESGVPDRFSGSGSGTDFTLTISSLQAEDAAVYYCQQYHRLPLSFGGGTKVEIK

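This is the validation round: designs drawn from the data on random variants, tested in the same kind of assay. Their group label is 14H_En_HC (En: ensemble of fine-tuned language models; HC: hill climbing; a sequence that several methods proposed may carry one label only). The scFvs were displayed on barcoded MATa yeast, the peptide on MATalpha yeast. Binding brings cells together so that they mate, and sequencing counts the barcode pairs among the diploids. The ratio of observed to expected reads was calibrated, replicate by replicate, on BCL2-family standards whose Kd was known from biolayer interferometry. Mating was done six times.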

Each variant is given by its three heavy chain CDRs, as the data file delimits them; those of the parent are GFTLNSYGIS, VIYSDGRRTFYGDSVK, GRAAGTFDS. Values are log10 of the apparent Kd in nM; lower means stronger binding. A mean of the replicates is given; it leaves out those without a signal. "nd" means that the variant was in the library but no mating with the target was seen in that replicate; the authors take this as a sign of poor binding, and no number exists. The range of this assay differs from that of the first round, and the authors advise against merging the two. The authors averaged sequences with at least three values out of six and counted those with two or fewer as poor binders. Empty control strains, which show no peptide, gave a signal in 1% of pairings with all heavy chain designs; the median was 2.08 and 95% of these signals were weaker than 0.84. No background was subtracted. For each scFv, signals with the empty controls are counted beside the result, with their mean in brackets.

CDR-H1,CDR-H2,CDR-H3,"log10 Kd, replicates","mean, log10 nM",control signals
GFDLNEYGIS,VIYADGMRTFYADSVK,GESAGTFDQ,-0.14 -0.07 -0.39 -0.71 0.17 -0.01,-0.19,0 of 18
GFDINEYGIS,VIYADGRRTAYADSVK,GQTAGTFDV,-0.53 -0.71 -0.83 -0.68 -0.65 -0.60,-0.67,0 of 18
GFDLNEYGIS,VIYADGKRTFYADSVK,GTNGGTFDV,0.42 -0.18 0.19 -0.43 -0.07 -0.22,-0.05,0 of 18
GFDLNEYGIS,VIYADGVRTAYADKVK,GENAGTFDI,0.35 0.18 0.30 0.09 0.80 0.47,0.36,1 of 18 (2.49)
GFDLNEYGIS,VIYADGKRTFYSDSVK,GQSAGTFDA,0.03 -0.05 -0.17 -0.25 -0.08 -0.21,-0.12,0 of 18
GFDLNEYGIS,VIYADGRRTFYTDSVK,GEHAGSFDV,-0.15 -0.22 -0.43 -0.29 -0.47 -0.20,-0.29,0 of 18
GFDLEEYGIS,VIYADGRRTFYSDSVK,GEAAGTFDV,-0.30 -0.40 -0.39 -0.40 -0.48 -0.71,-0.45,0 of 18
GFSLDEYGIS,VIYADGRRTFYQDDVK,GNVAGTFDM,-0.34 -0.48 -0.56 -0.64 -0.67 -0.37,-0.51,0 of 18
GFTLDEYGIS,VIYADGRRTFYADSVK,GENAGTFDI,-0.37 -0.73 -0.52 -0.52 -1.14 -0.27,-0.59,0 of 18
GFNLDEYGIS,VIYADGRRTFYADSVK,GEVAGTFDT,-0.43 -0.87 -0.84 -1.25 -1.25 -0.63,-0.88,0 of 18
GFDLNEYGIS,VIYADGVRTSYADSVK,GQLAGTFDQ,-0.23 -0.47 -0.17 -0.15 -0.31 -0.20,-0.26,0 of 18
GFSLDEYGIS,VIYADGRRTFYADSVK,GNAAGTFDS,nd nd nd nd nd nd,nd,0 of 18
GFDLNEYGIS,VIYADGKRTSYKDSVK,GEAAGTFDV,-0.60 -0.48 -0.53 -0.69 -0.50 -0.97,-0.63,0 of 18
GFDLNEYGIS,VIYADGKRTQYIDSVK,GEQAGTFDS,-0.03 -0.22 -0.03 0.11 -0.08 0.08,-0.03,0 of 18
GFDLNEYGIS,VIYADGIRTFYADSVK,GNAAGTFDK,-0.53 -0.01 0.10 -0.54 -0.30 -0.23,-0.25,0 of 18
GFDLNEYGIS,VIYADGRRTQYIDSVK,GNQAGTFDA,0.04 -0.28 0.03 -0.46 -0.40 0.03,-0.17,0 of 18
GFDINEYGIS,VIYADGRRTAYTDSVK,GGNAGTFDV,0.49 -0.14 0.27 0.05 0.08 0.20,0.16,0 of 18
GFDLNEYGIS,VIYADGVRTFYADSVK,GEAAGTFDQ,nd nd nd nd nd nd,nd,0 of 18
GFDLNEYGIS,VIYADGIRTAYADSVK,GNAAGTFDV,-0.59 -0.40 -0.21 -0.78 -0.49 -0.13,-0.43,0 of 18
GFDLNEYGIS,VIYADGRRTFYADSVK,GNTAGTFNS,-0.40 -0.51 -0.41 -0.77 -0.65 -0.62,-0.56,0 of 18
GFDLNEYGIS,VIYADGMRTFYVDSVK,GVNAGTFDV,0.46 1.02 0.85 -0.26 0.49 0.27,0.47,0 of 18
GFDLEDYGIS,VIYADGRRTQYADSVK,GEVAGTFDL,0.20 0.28 0.97 0.48 0.58 0.31,0.47,0 of 18
GFNLDEYGIS,VIYADGRRTAYSDSVK,GEVAGTFDI,nd nd nd nd 2.54 2.18,2.36,0 of 18
GFNLNEYGIS,VIYADGRRTFYADSVK,GENAGTFDI,-0.36 -1.03 -0.95 -1.10 -0.52 -0.84,-0.80,2 of 18 (1.65)
GFDLNEYGIS,VIYADGVRTFYTDSVK,GEHAGIFDV,0.40 0.71 0.44 0.48 0.41 0.72,0.53,1 of 18 (2.24)
GFDLNEYGIS,VIYADGRRTFYTDSVK,GTQAGTFDV,1.00 -0.52 -0.27 -0.33 nd 0.11,0.00,0 of 18
GFDLNEYGIS,VIYADGRRTSYKDSVK,GEEAGTFNV,0.42 0.77 0.09 -0.50 0.13 0.31,0.20,0 of 18
GFDLNEYGIS,VIYADGRRTFYIDSVK,GEIAGTFNM,0.47 -0.71 -0.67 -0.78 -0.76 0.66,-0.30,1 of 18 (1.76)
GFNLNEYGIS,VIYADGRRTFYADDVK,GEVAGTFDL,-0.27 -0.59 -0.86 -0.95 -0.89 -0.63,-0.70,0 of 18
GFDLDEYGIS,VIYADGRRTFYADSVK,GTLAGTFDM,-0.45 -0.64 -0.41 -0.65 -0.47 -0.38,-0.50,0 of 18
GFDLNEYGIS,VIYADGIRTFYADSVK,GNLAGTFDS,-0.63 -0.69 -0.84 -0.58 -0.55 -0.84,-0.69,1 of 18 (1.60)
GFDLNEYGIS,VIYADGRRTFYTDSVK,GEVAGTFDD,-0.26 -0.42 -0.55 -0.76 -0.48 0.17,-0.38,1 of 18 (1.23)
GFDLDEYGIS,VIYADGRRTAYIDSVK,GETAGTFDV,-0.32 -0.37 -0.34 -0.37 -0.45 0.08,-0.30,1 of 18 (1.92)
GFDLNEYGIS,VIYADGRRTAYIDSVK,GQLAGTFDT,-0.82 -0.66 -1.13 -1.12 -0.70 -1.01,-0.90,0 of 18
GFDLNEYGIS,VIYADGRRTFYSDSVK,GEVAGTFVD,0.13 -0.06 -0.21 -0.13 -0.03 0.04,-0.04,0 of 18
GFDLNEYGIS,VIYADGMRTFYDDSVK,GQNAGTFDF,0.59 0.38 0.37 0.31 0.84 0.91,0.57,0 of 18
GFDLNEYGIS,VIYADGRRTFYTDSVK,GQLAGTFDA,-0.61 -0.62 -0.76 -0.74 -0.79 -0.51,-0.67,0 of 18
GFDLNEYGIS,VIYADGQRTFYTDAVK,GEVAGTFDS,0.47 0.22 0.39 0.27 0.25 0.46,0.34,0 of 18
GFDLESYGIS,VIYADGRRTFYSDSVK,GSNAGTFDI,-0.43 -0.45 -0.71 -0.72 -0.62 -0.06,-0.50,0 of 18
GFNLEDYGIS,VIYADGMRTFYADSVK,GKVAGTFDV,-0.42 0.02 -0.26 0.13 -0.11 -0.10,-0.13,0 of 18

The last 4 entries again:

CDR-H1,CDR-H2,CDR-H3,"log10 Kd, replicates","mean, log10 nM",control signals
GFDLNEYGIS,VIYADGRRTFYTDSVK,GQLAGTFDA,-0.61 -0.62 -0.76 -0.74 -0.79 -0.51,-0.67,0 of 18
GFDLNEYGIS,VIYADGQRTFYTDAVK,GEVAGTFDS,0.47 0.22 0.39 0.27 0.25 0.46,0.34,0 of 18
GFDLESYGIS,VIYADGRRTFYSDSVK,GSNAGTFDI,-0.43 -0.45 -0.71 -0.72 -0.62 -0.06,-0.50,0 of 18
GFNLEDYGIS,VIYADGMRTFYADSVK,GKVAGTFDV,-0.42 0.02 -0.26 0.13 -0.11 -0.10,-0.13,0 of 18

Values reported by Li et al. 2023, doi:10.1038/s41467-023-39022-2 (FLAb copy).